Experimental data from US20230381129A1, “PERMETRIN FOR USE IN THE TREATMENT OF DEMODEX SPP INFESTATION” (priority 2020, published 2023).

Tested on: Demodex mites
Assay: In vitro survival study of Demodex mites on a glass slide without a coverslip
Design: species or system Demodex spp.
Procedure: At least ten eyelashes from the upper and lower eyelids of both eyes were randomly collected from all subjects from the subsequent groups. The collected material was assessed in a UB-203i light microscope with a five-point revolver bowl and a vision track with a magnification of 4×, 10×, 20×, 40× and 100×, archiving the results with a digital camera type Toupcam TP 601300A from Touptek Photonics installed in the device.
In the case of the presence of Demodex mites, several dozen different chemical compounds in various concentrations with a potential demodicidal effect were used on the glass slide without the use of a coverslip. […] The in vitro test results for permethrin and fluralaner were archived using a Toupcam TP 601300A digital camera from Touptek Photonics mounted on the device.

CCN(Cc1ccncc1)C(=O)C(CO)c1ccccc1 (stereo not shown) [Tropicamidum]
Time of Survival of Demodex mites: more than 15 minutes
